Experimental data from patent US20250289873A1 (BROADWING BIO, published 2025).

Molecular target: T1, Human CFHL1-Y402H-His (ATX-P-421) (human)
T1 construct: also called human CFHL-1 (Y402H) protein
T1 chain: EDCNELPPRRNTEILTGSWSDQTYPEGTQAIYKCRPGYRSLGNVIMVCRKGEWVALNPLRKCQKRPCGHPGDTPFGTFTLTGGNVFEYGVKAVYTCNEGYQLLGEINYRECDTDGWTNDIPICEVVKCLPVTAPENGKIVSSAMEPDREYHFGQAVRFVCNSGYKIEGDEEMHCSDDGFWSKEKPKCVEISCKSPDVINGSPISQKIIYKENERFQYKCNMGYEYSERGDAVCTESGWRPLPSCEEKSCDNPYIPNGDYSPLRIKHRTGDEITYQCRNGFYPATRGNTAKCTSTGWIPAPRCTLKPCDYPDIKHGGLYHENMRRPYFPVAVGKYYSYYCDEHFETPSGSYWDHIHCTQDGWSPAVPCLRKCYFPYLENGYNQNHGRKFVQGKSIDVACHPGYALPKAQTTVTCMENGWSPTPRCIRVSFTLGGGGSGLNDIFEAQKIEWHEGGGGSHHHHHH
Assay: Carterra LSA biosensor, mAb printed on chip, human CFHL1-Y402H-His at 380 nM
Procedure: Experiments were also conducted to determine the reactivity of the CFHR4 antibodies with the human CFHL-1 (Y402H) protein (FIG. 10). The binding experiments were performed on Carterra LSA with a running buffer of PBS pH 7.40, 1% BSA, 0.05% Tween20. Antibodies were covalently printed on an HC30M chip. Chip was activated with 33 mM s-NHS and 133 mM EDC in 100 mM MES pH 5.5 for 7 minutes. Antibodies at 10 mg/ml in acetic acid buffer pH 4.5 were used for printing for 10 min. The printed chip was then quenched with 1 M ethanolamine pH 8.5 for 7 min. For the reactivity assay, ATX-P-421, human CFHL1-Y402H-His, at 380 nM was tested with 5 min association followed by 15 min dissociation. Results were processed and analyzed in Carterra LSA Kinetics Software. The data was referenced with the interstitial reference spots and double-referenced to a buffer cycle, and then the responses (nm) after association were reported. Isotype control was used to determine the cutoff response for positive binding.

binding result: binds
B1: ATX-P-604 (antibody, human IgG1, kappa, N297A, V domains shown)
VH: QVQLQQSGPGLVKPTQTLSLTCAISGDSVSSNSAAWNWIRQSPSRGLEWLGRTYYRSKWFNGYAVSVKSRITINPDASKNQFSLHLKSVTDEDTAVYYCATDRGELLHWYFDLWGRGTLVTVSS
VL: EIVLTQSPDTLSLSPGERATLSCRASQTIRSSYLAWYQLKPGQAPRLLIYGASSRATGIPDRFSGSGSGTDFTLSISRLEPEDFAVYYCQQYGRSIIFGGGTKVEIKR
